Source: patent publication US9957484B2, “Methods for promoting cell reprogramming” (Sanford-Burnham Medical Research Institute, priority 2011, dated 2018)

What was measured:
Assay type in all cases: cell-based, mouse
[1] = tested on: 4F-transduced Oct4-GFP MEFs; assay: Kinase inhibitor treatment of 4F-transduced Oct4-GFP MEFs, Oct4-GFP+ colony count (reprogramming efficiency); details: 4F plus p53 shRNA, inhibitor from day 3, GFP+ colonies at day 12
4F-infected MEFs = assay: Cell proliferation assay (Celltiter 96 aqueous), 4F-infected MEFs; details: 4F-transduced MEFs, 0.5 μM
Experimental: (§1) FIGS. 14A-14D are a series of tabular and graphical representations depicting essential hits that block the reprogramming process. FIG. 14A is a table listing essential hits that are not Cdk inhibitors. FIG. 14B is a graph showing proliferation of wild-type MEFs is altered by inhibitor treatment. MEFs were treated with drugs at 2 μM and proliferation was assayed by using the Celltiter 96™ aqueous method (Promega). Y-axis represents the absorbance at 490 nm to detect formazan, which is converted from MTS tetrazolium by living cells. A higher reading indicates increased cell number. FIG. 14C is a graph showing proliferation of 4F-transduced MEFs was also altered by drug treatment. FIG. 14D is a histogram showing that reprogramming efficiency was decreased by drug treatment. Oct4-GFP+ colonies were quantified at day 13.
(§2) FIG. 16A is a graph plotting relative cell viability. […] Proliferation of cells was analyzed every other day using the Celltiter 96™ aqueous method (Promega). […]
(§3) Cell proliferation assay: 3000 MEFs were seeded in each well in 96-well plates and transduced with 4F virus for three days. […] Absorbance at 490 nm was then measured for each well using a plate reader, and data was used to generate relative proliferation curves using the signal from day 3 post-transduction as a reference.

uninfected MEFs = assay: Cell proliferation assay (Celltiter 96 aqueous), uninfected MEFs; details: 0.5 μM
Experimental: as §1, §2, §3

`O=C(Nc1cccc(Nc2nccc(Nc3cccc(C(F)(F)F)c3)n2)c1)C1CC1` [BIM-0086660] was tested, and the “iPSC generation when p53 is silenced by shRNA” value [1] was “equivalent in inhibitor-treated and -untreated conditions”, the proliferation (4F-infected MEFs) was “did not significantly promote proliferation” and the proliferation (uninfected MEFs) was “did not significantly promote proliferation”.
